# Membrane permeability of cyclic peptides

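The data file gives no further conditions (lipid, pH, time, direction or concentration), and values from different papers need not be comparable. The list need not hold all peptides of the study. Entries at the database's floor value (log10 P of -10) are not listed.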

PAMPA is the parallel artificial membrane permeability assay, which has no cells and reads passive diffusion. Values are log10 P with P in cm/s, so -5 is more permeable than -7.

SMILES,PAMPA (log10 cm/s)
CC(C)C[C@@H]1NC(=O)[C@@H](C)NC(=O)[C@H](Cc2ccccc2)NC(=O)CN(Cc2ccccc2)C(=O)[C@@H]2CCCN2C(=O)C[C@H](Cc2ccccc2)NC1=O,-5.96
CCCN1CC(=O)N(C)[C@@H](CC(C)C)C(=O)N(Cc2ccccc2)CC(=O)N2CCC[C@@H]2C(=O)N(Cc2ccccc2)CC(=O)N[C@@H](Cc2ccccc2)C1=O,-5.70
O=C1CN(Cc2ccccc2)C(=O)C[C@H](Cc2ccccc2)NC(=O)[C@H](Cc2ccccc2)NC(=O)CN(Cc2ccccc2)C(=O)[C@H]2CCCN2C(=O)C[C@H](Cc2ccccc2)N1,-5.73
CC(C)C[C@@H]1C(=O)N2CCC[C@H]2C(=O)N(Cc2ccccc2)CC(=O)N[C@@H](Cc2ccccc2)C(=O)N2CCC[C@@H]2C(=O)N(C)[C@@H](C)C(=O)N(Cc2ccccc2)CC(=O)N1C,-5.77
CC(C)C[C@@H]1C(=O)N[C@@H](Cc2ccccc2)C(=O)N2CCC[C@@H]2C(=O)N(C)[C@H](C)C(=O)N(Cc2ccccc2)CC(=O)N(Cc2ccccc2)CC(=O)N2CCC[C@H]2C(=O)N1C,-5.47
CC(C)C[C@H]1NC(=O)C[C@H](Cc2ccccc2)NC(=O)[C@@H]2CCCN2C(=O)[C@H](Cc2ccccc2)NC(=O)CN(Cc2ccccc2)C(=O)[C@H]2CCCN2C(=O)C[C@H](Cc2ccccc2)NC1=O,-5.93
O=C1CN(Cc2ccccc2)C(=O)[C@@H]2CCCN2C(=O)CN(Cc2ccccc2)C(=O)CN(Cc2ccccc2)C(=O)C[C@H](Cc2ccccc2)NC(=O)[C@H](Cc2ccccc2)N1,-6.17
C[C@H]1NC(=O)[C@H](Cc2ccccc2)NC(=O)CN(Cc2ccccc2)C(=O)[C@@H]2CCCN2C(=O)CN(Cc2ccccc2)C(=O)CN(Cc2ccccc2)C1=O,-6.06
CC(C)C[C@@H]1NC(=O)CN(Cc2ccccc2)C(=O)[C@@H](C)NC(=O)[C@@H]2CCCN2C(=O)[C@H](Cc2ccccc2)NC(=O)CN(Cc2ccccc2)C(=O)[C@@H]2CCCN2C1=O,-5.99
CCCN1CC(=O)N(Cc2ccccc2)CC(=O)N[C@@H](CC(C)C)C(=O)N2CCC[C@H]2C(=O)N[C@@H](CC(C)C)C(=O)N[C@@H](Cc2ccccc2)C(=O)N2CCC[C@@H]2C1=O,-6.22
CC(C)C[C@@H]1NC(=O)CN(Cc2ccccc2)C(=O)[C@@H](C)NC(=O)[C@H]2CCCN2C(=O)[C@H](Cc2ccccc2)NC(=O)[C@H](CC(C)C)N(C)C(=O)[C@H]2CCCN2C1=O,-5.53
CCCN1CC(=O)N(C)[C@@H](CC(C)C)C(=O)N[C@@H](CC(C)C)C(=O)N2CCC[C@H]2C(=O)N(Cc2ccccc2)CC(=O)N[C@@H](Cc2ccccc2)C1=O,-4.95
CC(C)C[C@@H]1C(=O)N2CCC[C@@H]2C(=O)N(C)[C@H](CC(C)C)C(=O)N[C@@H](Cc2ccccc2)C(=O)N2CCC[C@@H]2C(=O)N[C@H](C)C(=O)N(Cc2ccccc2)CC(=O)N1C,-6.15
CC(C)C[C@@H]1NC(=O)[C@@H]2CCCN2C(=O)[C@H](CC(C)C)NC(=O)CN(Cc2ccccc2)C(=O)[C@@H](C)N(C)C(=O)[C@H]2CCCN2C(=O)[C@H](Cc2ccccc2)NC1=O,-5.98
CC(C)C[C@H]1NC(=O)[C@@H]2CCCN2C(=O)[C@@H](CC(C)C)NC(=O)CN(Cc2ccccc2)C(=O)C[C@H](Cc2ccccc2)NC(=O)[C@H](Cc2ccccc2)NC1=O,-5.94
CC(C)C[C@H]1C(=O)N(C)[C@@H](CC(C)C)C(=O)N2CCC[C@H]2C(=O)N(Cc2ccccc2)CC(=O)N[C@@H](Cc2ccccc2)C(=O)N2CCC[C@@H]2C(=O)N[C@@H](Cc2ccccc2)CC(=O)N1C,-5.66

The 2 highest values of PAMPA among the entries above:

SMILES,PAMPA (log10 cm/s)
CCCN1CC(=O)N(C)[C@@H](CC(C)C)C(=O)N[C@@H](CC(C)C)C(=O)N2CCC[C@H]2C(=O)N(Cc2ccccc2)CC(=O)N[C@@H](Cc2ccccc2)C1=O,-4.95
CC(C)C[C@@H]1C(=O)N[C@@H](Cc2ccccc2)C(=O)N2CCC[C@@H]2C(=O)N(C)[C@H](C)C(=O)N(Cc2ccccc2)CC(=O)N(Cc2ccccc2)CC(=O)N2CCC[C@H]2C(=O)N1C,-5.47

Source: CycPeptMPDB (Li et al. 2023), which took these values from Townsend et al. 2020, doi:10.26434/chemrxiv.13335941.v1.